This is an account of results in patent US20260166170A1, “ANTIBODY DRUG CONJUGATE COMPRISING NMT INHIBITOR AND ITS USE” (MyricX Pharma Limited, priority 2022, published 2026).

This data set concerns BT474 breast cancer cells. The data set can be described thus: Orthotopic breast cancer xenograft model. The format is in vivo, NOD/SCID mice. The note with it: trastuzumab or ADC Example 1 2.5 or 5 mg/kg; NMT inhibitor 1 2 mg/kg. As to the method: NOD/SCID mice were implanted with estrogen pellets (17β-estradiol, 60 day release, 0.36 mg) subcutaneously in the right flank one day before the tumour inoculation. On day-8 each mouse was then inoculated in the right mammary fat pad with 1×10^7 viable BT474 breast cancer cells resuspended in 0.2 mL of Phosphate Buffered Saline mixed with matrigel (1:1). Mice were assigned to treatment groups when tumour volumes averaged 149.78 mm^3 on study day 0. […] The study was terminated on Study Day 35. […] Each group was comprised of 10 mice. Tumour volumes in mice were measured three times per week and tumour volume was calculated using the formula 0.5 (L×W^2). The mean tumour volumes (+SEM) for each study group at each measurement are shown in FIG. 1 and FIG. 2 plotted as Last Observation Carried Forward. Statistical analyses were carried out on tumour readings for Groups 1, 2, 3, 4 and 5 up to Study Day 23 (after this point >50% of the animals within one of the study groups were lost; Group 2) using two-way ANOVA, or a Mixed-Effects model was fitted when values were missing from groups (PRISM GraphPad Software Inc.). Statistical analysis of Group 6 was conducted until day 13 (at this point the study was terminated due to the significant loss of observed body weight). […]
During the study, body weights were measured three times weekly for all animals. […]

Consider “trastuzumab: humanized anti-HER2 monoclonal antibody”, for which the “body weights of mice compared to vehicle control” value is given as “did not differ significantly from the vehicle control”.
